Literature values, collected in patent US20240245799A1, “PREPARATION METHOD FOR ANTIBODY-DRUG CONJUGATE, AND APPLICATION” (priority 2021, published 2024).

Key:
breast cancer = details: DESTINY-Breast03; cited from earlier work
[1] = tested on: breast cancer with low HER2 expression; details: DS8201-A-J101, breast cancer with low HER2 expression; cited from earlier work
[2] = in vivo; cited from earlier work

For Enhertu, the “confirmed objective response rate (ORR)” value (breast cancer) is given as 79.7%, the “confirmed objective response rate (ORRs)” value [1] is given as 37.0% and the toxic side effects [2] is given as “side effects such as pneumonia and interstitial lung disease”.
